Experiments:
[1] = test system: MDA-MB231 breast cancer cells
[2] = test system: SKBR-3 breast cancer cells; settings: 100 μM CoQ10 for 72-96 hours, FIG. 18
[3] = test system: MDA-MB213 breast cancer cells; assay: Caspase 3 activity; type: cell-based; settings: 100 μM CoQ10 for 72-96 hours, FIG. 18
[4] = test system: Human pancreatic cancer cells (PcCa2); assay: Number of viable cells, CoQ10 pretreatment or cotreatment with gemcitabine (Example 18); type: cell-based; settings: pretreated with 100 μM CoQ10 followed by gemcitabine (0.1, 1 and 5 μM), *p<0.05, FIG. 26
Description: Human pancreatic cancer cells (PcCa2) were pretreated with 100 μM CoQ10 followed by treatment with gemcitabine (0.1, 1 and 5 μM), or cotreated with CoQ10 and gemcitabine.

[5] = test system: SK-Br3 breast cancer cells; assay: In vitro cell viability / viable cell number; type: cell-based, Human
Description: Cell lines (e.g., MIAPaCa-2, Hep3B, and/or SK-Br3) cell lines were maintained in culture using standard culture conditions for each cell line. Cells were treated with CoQ10 or the indicated chemotherapeutic agents at the indicated concentrations for the indicated times. After the predetermined incubation time, the cells were stained to distinguish between viable and non-viable cells using routine methods. Cells were counted by microscopy or flow cytometry. The number of cells after treatment were normalized to the number of cells in the untreated sample.
Specifically, to assess the efficacy of CoQ10 in combination with gemcitabine in vitro, MIAPaCa-2 pancreatic carcinoma cells were maintained in culture and exposed to increasing concentrations of gemcitabine in combination with CoQ10, the 4% CoQ10 intravenous formulation, or the excipient of the CoQ10 intravenous formulation. […] The combination treatment with gemcitabine and the 4% CoQ10 intravenous formulation results in an increase in cell death as compared to gemcitabine treatment alone.
To assess the efficacy of CoQ10 in combination with doxorubicin in vitro, MIAPaCa-2 pancreatic carcinoma cells were maintained in culture and exposed to increasing concentrations of gemcitabine in combination with CoQ10, the 4% CoQ10 intravenous formulation, or the excipient of the CoQ10 intravenous formulation. […]

[6] = test system: SKBR-3 breast cancer cells; assay: Reactive oxygen species (ROS) production; type: cell-based; settings: 100 μM CoQ10 for 24 hours, FIG. 17

## COC1=C(OC)C(=O)C(C/C=C(\C)CC/C=C(\C)CC/C=C(\C)CC/C=C(\C)CC/C=C(\C)CC/C=C(\C)CC/C=C(\C)CC/C=C(\C)CC/C=C(\C)CCC=C(C)C)=C(C)C1=O [CoQ10, Coenzyme Q10]
[1]
  Number of viable cells compared to chemotherapeutic agents: significant decreases in viable breast cancer cells
[2]
  Caspase 3 activity vs untreated: increased caspase 3 activity
[3]
  Caspase 3 activity vs untreated: increased caspase 3 activity
[4]
  Number of viable cells compared to gemcitabine alone, pretreatment: significantly decreased the number of viable cells
[5]
  Number of viable cells compared to chemotherapeutic agents: significant decreases in viable breast cancer cells
[6]
  ROS production: increased ROS production

Reference: patent publication US10933032B2, “Methods for the treatment of cancer using coenzyme Q10 combination therapies” (Berg LLC, priority 2013, dated 2021)
